Test results taken from patent US11633459B2, “GIP derivatives and uses thereof” (priority 2018, dated 2023).

experiment: Pharmacokinetic study in minipigs, terminal half-life after i.v. administration; conditions: female, Göttingen, minipig, plasma, iv, 5 nmol/kg

`CCCC[C@H](NC(=O)[C@H](C)NC(=O)[C@@H](NC(=O)[C@H](CO)NC(=O)[C@H](Cc1ccc(O)cc1)NC(=O)[C@H](CC(=O)O)NC(=O)[C@H](CO)NC(=O)[C@@H](NC(=O)[C@H](Cc1ccccc1)NC(=O)[C@@H](NC(=O)CNC(=O)[C@H](CCC(=O)O)NC(=O)C(C)(C)NC(=O)[C@@H](Cc1ccc(O)cc1)NC(C)=O)[C@@H](C)O)[C@@H](C)CC)[C@@H](C)CC)C(=O)N[C@@H](CC(=O)O)C(=O)N[C@@H](CCCCN)C(=O)N[C@H](C(=O)N[C@@H](CCCNC(=N)N)C(=O)N[C@@H](CCC(N)=O)C(=O)N[C@@H](CCC(N)=O)C(=O)N[C@@H](CC(=O)O)C(=O)N[C@@H](Cc1ccccc1)C(=O)N[C@H](C(=O)N[C@@H](CCCCNC(=O)CC[C@H](NC(=O)CC[C@H](NC(=O)CC[C@H](NC(=O)C1CCC(CNC(=O)CCCCCCCCCCCCCCCCCCC(=O)O)CC1)C(=O)O)C(=O)O)C(=O)O)C(=O)N[C@@H](Cc1c[nH]c2ccccc12)C(=O)N[C@@H](CC(C)C)C(=O)N[C@@H](CC(C)C)C(=O)N[C@@H](C)C(=O)N[C@@H](CCC(N)=O)C(=O)N[C@@H](CCCCN)C(=O)NCC(=O)O)C(C)C)[C@@H](C)CC` (stereo partly drawn) [Compound 6, N{1}-acetyl,N{Epsilon-24}-[(4S)-4-carboxy-4-[[(4S)-4-carboxy-4-[[(4S)-4-carboxy-4-[[4-[(19-carboxynonadecanoylamino)methyl]cyclohexanecarbonyl]amino]butanoyl]amino]butanoyl]amino]butanoyl]-[D-Tyr1,Aib2,Nle14,Arg18,Lys24]-hGIP(1-31)] and `CCCC[C@H](NC(=O)[C@H](C)NC(=O)[C@@H](NC(=O)[C@H](CO)NC(=O)[C@H](Cc1ccc(O)cc1)NC(=O)[C@H](CC(=O)O)NC(=O)[C@H](CO)NC(=O)[C@@H](NC(=O)[C@H](Cc1ccccc1)NC(=O)[C@@H](NC(=O)CNC(=O)[C@H](CCC(=O)O)NC(=O)[C@H](C)NC(=O)[C@@H](Cc1ccc(O)cc1)NC(C)=O)[C@@H](C)O)[C@@H](C)CC)[C@@H](C)CC)C(=O)N[C@@H](CC(=O)O)C(=O)N[C@@H](CCCCN)C(=O)N[C@H](C(=O)N[C@@H](Cc1c[nH]cn1)C(=O)N[C@@H](CCC(N)=O)C(=O)NC(C)(C)C(=O)N[C@@H](CC(=O)O)C(=O)N[C@@H](Cc1ccccc1)C(=O)N[C@H](C(=O)N[C@@H](CCCCNC(=O)CC[C@H](NC(=O)CC[C@H](NC(=O)CC[C@H](NC(=O)C1CCC(CNC(=O)CCCCCCCCCCCCCCCCCCC(=O)O)CC1)C(=O)O)C(=O)O)C(=O)O)C(=O)N[C@@H](Cc1c[nH]c2ccccc12)C(=O)N[C@@H](CC(C)C)C(=O)N[C@@H](CC(C)C)C(=O)N[C@@H](C)C(=O)N[C@@H](CCC(N)=O)C(=O)N[C@@H](CCCCN)C(=O)NCC(=O)O)C(C)C)[C@@H](C)CC` (stereo partly drawn) [Compound 24, N{1}-acetyl,N{Epsilon-24}-[(4S)-4-carboxy-4-[[(4S)-4-carboxy-4-[[(4S)-4-carboxy-4-[[4-[(19-carboxynonadecanoylamino)methyl]cyclohexanecarbonyl]amino]butanoyl]-amino]butanoyl]amino]butanoyl]-[D-Tyr1,Nle14,Aib20,Lys24]-hGIP(1-31)] are the same in half-life: 125 h for the first, 125 h for the second.

For `CCCC[C@H](NC(=O)[C@H](C)NC(=O)[C@@H](NC(=O)[C@H](CO)NC(=O)[C@H](Cc1ccc(O)cc1)NC(=O)[C@H](CC(=O)O)NC(=O)[C@H](CO)NC(=O)[C@@H](NC(=O)[C@H](Cc1ccccc1)NC(=O)[C@@H](NC(=O)CNC(=O)[C@H](CCC(=O)O)NC(=O)[C@H](C)NC(=O)[C@@H](Cc1ccc(O)cc1)NC(C)=O)[C@@H](C)O)[C@@H](C)CC)[C@@H](C)CC)C(=O)N[C@@H](CC(=O)O)C(=O)N[C@@H](CCCCN)C(=O)N[C@H](C(=O)N[C@@H](Cc1c[nH]cn1)C(=O)N[C@@H](CCC(N)=O)C(=O)N[C@@H](CCC(N)=O)C(=O)N[C@@H](CC(=O)O)C(=O)N[C@@H](Cc1ccccc1)C(=O)N[C@H](C(=O)N[C@@H](CCCCNC(=O)CC[C@H](NC(=O)CC[C@H](NC(=O)CC[C@H](NC(=O)C1CCC(CNC(=O)CCCCCCCCCCCCCCCCCCC(=O)O)CC1)C(=O)O)C(=O)O)C(=O)O)C(=O)N[C@@H](Cc1c[nH]c2ccccc12)C(=O)N[C@@H](CC(C)C)C(=O)N[C@@H](CC(C)C)C(=O)N[C@@H](C)C(=O)N[C@@H](CCC(N)=O)C(=O)N[C@@H](CCCCN)C(=O)N1CCC[C@H]1C(N)=O)C(C)C)[C@@H](C)CC` (stereo partly drawn) [Compound 29, N{1}-acetyl,N{Epsilon-24}-[(4S)-4-carboxy-4-[[(4S)-4-carboxy-4-[[(4S)-4-carboxy-4-[[4-[(19-carboxynonadecanoylamino)methyl]cyclohexanecarbonyl]amino]butanoyl]-amino]butanoyl]amino]butanoyl]-[D-Tyr1,Nle14,Lys24,Pro31]-hGIP(1-31) amide], the half-life was 119 h.
